From patent US4675326A, “Bisquaternary antidotes” (dated 1987)

How the values were obtained:
[1] = Efficacy of treatment against soman poisoning in mice; details: with atropine and benactyzine, pyridostigmine pretreatment
[2] = Efficacy of treatment against sarin poisoning in mice; details: with atropine and benactyzine
[3] = Efficacy of treatment against VX poisoning in mice; details: with atropine and benactyzine

Row | Structure (SMILES) | antidotal activity in the treatment of soman poisoning, compared to TMB-4 [1] | antidotal activity against sarin, compared to TMB-4 [2] | treatment against VX, compared to TMB-4 [3]
1 | CC(=O)OC1C[N+]2(COC[n+]3ccccc3C=NO)CCC1CC2 (stereo not drawn) | superior to TMB-4 |  | 
2 | O=C1C[N+]2(COC[n+]3ccccc3C=NO)CCC1CC2 | superior to TMB-4 | comparable to TMB-4 | 
3 | O=C1C[N+]2(COC[n+]3ccc(C=NO)cc3)CCC1CC2 | superior to TMB-4 | comparable to TMB-4 | slightly better than TMB-4
